The source made the active and inactive calls. The calls are words filed in the database; no cut-off is given here.
Assay: Reactivity with cysteine at 0.1 mM in 0.1M phosphate buffer assessed as amount of compound unreacted by HPLC

In the case of N#Cc1c(-c2ccc(-c3no[n+]([O-])c3C#N)s2)no[n+]1[O-], the Activity is reported as “Active”.
